Measurements: patent US20230165812A1, “NOCICEPTOR NEURONS CONTROL CANCER IMMUNOSURVEILLANCE” (priority 2020, published 2023)

System: cytotoxic CD8 T cells
Assay type: cell-based, mice
Description: 6-8 weeks-old male and female mice were euthanized, spleen harvested in ice-cold PBS (5% FBS), and mechanically dissociated. The cells were strained (70 μm), RBC lysed (Life Technologies, #A1049201; 2 min), and counted using a hemocytometer. Naïve CD8^+ T cells were magnet sorted (Stem cell, #19853A) and cultured (DMEM+FBS 10%, Pen/Strep +non-essential amino acid (Corning, #25-025-C1)+vitamin+β-mercaptoethanol (Gibco, #21985-023)+L-Glutamine (VWR, #02-0131)+sodium pyruvate (Corning, #25-000-C1)). Cell purity was confirmed after magnet sorting by labeling cells against CD62L and the numbers of CD8^+CD62^hi immunophenotyped by flow cytometry. To generate cytotoxic T lymphocytes, 1×10^6 naïve CD8^+ T cells were seeded and stimulated for 48 h under Tc1 inflammatory condition (2 μg/ml plate bounded αCD3/αCD28 (Bioxcell, #BE00011, #BE00151)+10 ng/ml rIL-12 (Biolegend, #577008)+10 μg/ml of anti-IL-4 (Bioxcell, #BE0045).
CD8 T cells were isolated and stimulated for 48 h in 96 wells plate. In the presence of peptidase inhibitor, the cells were treated with either of CGRP (0.1 uM), VIP (1 uM) and SST (0.1 uM), or a combination of these. Expression of PD-1, Lag-3 and Tim-3 as well as INFγ, TNFα and IL-2 were immunophenotyped by flow cytometry.

CGRP
cytotoxic CD8+ T-cells expression of Lag3+ (CGRP): increases | cytotoxic CD8+ T-cells expression of PD1+ (CGRP): increases | cytotoxic CD8+ T-cells expression of Tim3+ (CGRP): increases | proportion of PD1+Lag3+ cytotoxic CD8 T cells (CGRP 0.1 uM, VIP 1 uM, FIG. 38G): increased | proportion of TNFα+ cytotoxic CD8+ T-cells (CGRP, direct stimulation): decreased | proportion of PD1+Lag3+Tim3+ CD8 T cells (individual neuropeptides, peptidase inhibitor present, FIG. 38G): enhanced | proportion of INFγ+ CD8 T cells (individual neuropeptides, FIG. 38H): enhanced | proportion of PD1+ CD8 T cells (neuropeptides, FIG. 44H): enhanced | proportion of Lag3+ CD8 T cells (neuropeptides, FIG. 44I): enhanced | proportion of Tim3+ CD8 T cells (neuropeptides, FIG. 44J): enhanced | IL2+ CD8 T cells (neuropeptides, FIG. 44K): enhanced
